# Test results taken from patent publication US5968938A, “Piperazine oxytocin receptor antagonists” (Merck & Co., Inc., priority 1998, dated 1999).
# Amino acid sequences for entries named in this document (tags omitted).
# UniProt P30560, whole entry: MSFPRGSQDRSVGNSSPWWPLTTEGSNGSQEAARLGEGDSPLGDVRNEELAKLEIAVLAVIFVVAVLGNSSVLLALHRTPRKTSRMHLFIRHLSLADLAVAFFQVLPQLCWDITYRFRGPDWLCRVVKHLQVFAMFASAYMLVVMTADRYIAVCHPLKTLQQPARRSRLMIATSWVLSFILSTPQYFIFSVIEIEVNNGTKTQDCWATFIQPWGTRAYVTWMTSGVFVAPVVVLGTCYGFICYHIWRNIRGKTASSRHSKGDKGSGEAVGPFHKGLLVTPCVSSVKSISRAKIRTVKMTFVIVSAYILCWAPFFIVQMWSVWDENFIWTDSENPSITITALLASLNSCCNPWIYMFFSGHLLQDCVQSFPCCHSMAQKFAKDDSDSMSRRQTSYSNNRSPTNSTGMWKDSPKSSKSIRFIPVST
# Assays:
# [1] = molecular target: T1, AVP-V1 site (rat liver) (Rattus norvegicus, UniProt P30560); experiment: [3H]arginine vasopressin binding, rat liver membranes; settings: equilibrium saturation binding, n=3
# T1 construct: from tissue; host or cells: liver of male rats
# Source text: (§1) Ther., 256(1): 304-308 (1991)].
# [2] = molecular target: T2, human oxytocin receptor (Homo sapiens, UniProt P30559); experiment: [3H]oxytocin binding, human uterine tissue (myometrium) membranes; settings: equilibrium saturation binding, n=3
# T2 construct: tissue Oregon Health Sciences Center, Portland, Or; host or cells: uterine tissue (full thickness) from nonlabor pregnant women, 38 to 39 weeks gestation
# T2 sequence (P30559 1-389): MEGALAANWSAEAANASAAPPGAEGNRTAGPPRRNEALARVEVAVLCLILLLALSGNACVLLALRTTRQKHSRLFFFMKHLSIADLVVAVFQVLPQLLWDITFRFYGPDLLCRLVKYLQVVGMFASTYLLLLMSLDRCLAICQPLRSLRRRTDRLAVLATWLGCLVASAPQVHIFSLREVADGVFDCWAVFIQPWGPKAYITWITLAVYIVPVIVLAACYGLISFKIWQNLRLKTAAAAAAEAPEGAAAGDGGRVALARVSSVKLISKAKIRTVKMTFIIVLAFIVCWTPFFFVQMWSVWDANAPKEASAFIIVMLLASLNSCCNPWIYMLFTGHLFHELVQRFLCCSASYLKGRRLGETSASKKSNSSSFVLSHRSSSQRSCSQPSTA
# Source text: as §1
Substance,Kd [1] [nM],Kd [2] [nM]
[^3 H]arginine vasopressin [[^3 H]AVP],0.21,–
[^3 H]oxytocin [[^3 H]OT],–,1.1
